Measurements published in US20020068814A1.

Target: CGRP receptor of pig coronary artery (pig)
Experiment: displacement of 125I-[His10]-h-αCGRP from pig coronary artery membranes

Binder: VTHRLAGLLSRSGGVVKNNFVPTNVGSKAF [h-α-CGRP (8-37)]
- IC50: 14.4 nM
